Reference: ChEMBL document CHEMBL3596142, “Recent trends in orexin research--2010 to 2015” (Bioorg Med Chem Lett, 2015)
pKi: −log10 of the molar value.

Protein sequences, listed by entry. Tags and fused reporters are not part of them.
UniProt O43613, whole entry: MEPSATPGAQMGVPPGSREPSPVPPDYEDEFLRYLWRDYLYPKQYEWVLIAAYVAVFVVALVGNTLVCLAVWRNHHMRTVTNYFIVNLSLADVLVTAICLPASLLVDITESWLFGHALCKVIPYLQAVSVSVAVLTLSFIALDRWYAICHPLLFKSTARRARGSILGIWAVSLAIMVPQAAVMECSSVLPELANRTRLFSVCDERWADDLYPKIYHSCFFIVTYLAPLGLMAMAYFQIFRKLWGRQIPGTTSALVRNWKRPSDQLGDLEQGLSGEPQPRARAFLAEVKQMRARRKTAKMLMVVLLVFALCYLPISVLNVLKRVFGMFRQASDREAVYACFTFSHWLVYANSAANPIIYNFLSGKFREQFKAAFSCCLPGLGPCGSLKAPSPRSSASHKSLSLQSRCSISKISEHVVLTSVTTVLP

Target: Orexin/Hypocretin receptor type 1 (Homo sapiens, UniProt O43613)
Test: Displacement of [3H]-(l-(5-(2-fluoro-phenyl)-2-methyl-thiazol-4-yl)-l-((S)-2-(5-phenyl-(l,3,4)oxadiazol-2-ylmethyl)-pyrrolidin-l-yl)-methanone from human orexin-1 receptor expressed in CHO cells after 60 mins by scintillation counting analysis
Assay type: cell-based

pKi: 5.89
SMILES: Cc1cc(C)nc(N2CC3CN(C(=O)c4c(F)cccc4-n4nccn4)CC3C2)n1 (stereo unspecified) [SELTOREXANT]
